Converted amounts (≈) assume the structure as drawn.
Tests used:
S. aureus = experiment: Antimicrobial test, MIC against S. aureus; assay type: cell-based; conditions: Gram-positive bacteria S. aureus (n = 2)
Method: (§1) The solutions based on the Q-PHB-PDMAEMA were tested for efficacy in killing clinically significant pathogens: the […] and Gram-negative bacteria (E. coli).

E. coli = experiment: Antimicrobial test, MIC against E. coli; assay type: cell-based; conditions: Gram-negative bacteria E. coli (n = 2)
Method: as §1

`CC[C@H](C)[C@H](N)C(=O)N[C@@H](CC(C)C)C(=O)N1CCC[C@H]1C(=O)N[C@@H](Cc1c[nH]c2ccccc12)C(=O)N[C@@H](CCCCN)C(=O)N[C@@H](Cc1c[nH]c2ccccc12)C(=O)N1CCC[C@H]1C(=O)N[C@@H](Cc1c[nH]c2ccccc12)C(=O)N[C@@H](Cc1c[nH]c2ccccc12)C(=O)N1CCC[C@H]1C(=O)N[C@@H](Cc1c[nH]c2ccccc12)C(=O)N[C@@H](CCCNC(=N)N)C(=O)N[C@@H](CCCNC(=N)N)C(N)=O` [Indolicidin] was tested, and the MIC (S. aureus) was 130 mg/L (≈ 68.2 µM) and the MIC (E. coli) was greater than 250 mg/L.

Reference: patent US10450421B2, “Synthesis of multiarm poly[(R)-3-hydroxybutyrate] and its derivatives” (AGENCY FOR SCIENCE, TECHNOLOGY AND RESEARCH, priority 2015, dated 2019)
